Measurements taken from patent EP0608873A1, “Nitrosamine inhibition” (ALBRIGHT & WILSON UK LIMITED, priority 1993, dated 1994).

Conditions: amine oxide stored at 45°C; result in words

sodium salt of hydroxyethylamine bis methylene phosphonic acid [Inhibitor 1]
inhibitory effect upon storage: inferior with respect to Inhibitor 2
